# Values quoted from earlier work as cited in US20040022667A1 (priority 2001, published 2004).
# Conditions: versus Cl2; cited from earlier work
substance,measurement,value
Chlorine dioxide,solubility in water relative to chlorine gas (Cl2),approximately 5 times
